Data: patent EP1061897B1, “GLYCYLGLYCINE OLEAMIDE IN DERMO-COSMETOLOGY” (Pierre Fabre Dermo-Cosmetique, priority 1998, dated 1999)

Test system: élastase
Test: in vitro acellular anti-elastase test, elastase diffusion in agarose gel containing orcein-stained insoluble elastin
Format: biochemical
Details: figure 2
Description: La méthode utilisée est une technique in vitro acellulaire, basée sur la diffusion d'élastase dans un gel d'agarose contenant de l'élastine insoluble colorée par l'orcéïne et dispersée dans le gel avec ou sans principe actif. La lecture du diamètre de lyse permet de calculer le pourcentage d'inhibition de l'enzyme par le principe actif.

## CCCCCCCC/C=C\CCCCCCCC(=O)O [acide oléïque, acide oléique]
  activité anti-élastase (aire de lyse): celle-ci est apportée par l'acide oléïque
